{"sequences": {"note": "Sequences of proteins named here, by UniProt entry; tags and fusion partners are left off.", "UniProt Q60492, whole entry": "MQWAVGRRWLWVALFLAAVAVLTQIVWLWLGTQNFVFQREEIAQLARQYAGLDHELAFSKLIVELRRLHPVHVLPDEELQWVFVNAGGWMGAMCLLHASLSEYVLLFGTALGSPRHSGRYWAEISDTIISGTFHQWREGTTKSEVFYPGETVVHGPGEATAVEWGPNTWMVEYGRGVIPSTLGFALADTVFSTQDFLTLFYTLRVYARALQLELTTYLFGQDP"}, "source": "paper PMC9303367", "about": "“Synthesis of Aminoethyl‐Substituted Piperidine Derivatives as σ1 Receptor Ligands with Antiproliferative Properties” (Chemmedchem, 2022)", "origin": "cited, not measured here", "biological_target": "T1, σ1 receptor (Cavia porcellus, UniProt Q60492)", "T1 construct": "The thawed membrane preparation of guinea pig brain cortex; tissue Harlan-Winkelmann, Borchen, Germany; host or cells: guinea pig brain (cortex) membrane homogenate", "details": "lead compounds 1–3; cited from earlier work", "data": [{"smiles": "c1ccc(CNCCC2CCCC(c3ccccc3)O2)cc1", "note": "(stereo not shown) [compound 2]", "values": [{"measurement": "σ1 : σ2 selectivity", "value": 236}]}]}
